The structures appear in SMILES notation.

By UniProt entry, the sequences of proteins in these tests, tags left out.
UniProt Q9Y233, whole entry: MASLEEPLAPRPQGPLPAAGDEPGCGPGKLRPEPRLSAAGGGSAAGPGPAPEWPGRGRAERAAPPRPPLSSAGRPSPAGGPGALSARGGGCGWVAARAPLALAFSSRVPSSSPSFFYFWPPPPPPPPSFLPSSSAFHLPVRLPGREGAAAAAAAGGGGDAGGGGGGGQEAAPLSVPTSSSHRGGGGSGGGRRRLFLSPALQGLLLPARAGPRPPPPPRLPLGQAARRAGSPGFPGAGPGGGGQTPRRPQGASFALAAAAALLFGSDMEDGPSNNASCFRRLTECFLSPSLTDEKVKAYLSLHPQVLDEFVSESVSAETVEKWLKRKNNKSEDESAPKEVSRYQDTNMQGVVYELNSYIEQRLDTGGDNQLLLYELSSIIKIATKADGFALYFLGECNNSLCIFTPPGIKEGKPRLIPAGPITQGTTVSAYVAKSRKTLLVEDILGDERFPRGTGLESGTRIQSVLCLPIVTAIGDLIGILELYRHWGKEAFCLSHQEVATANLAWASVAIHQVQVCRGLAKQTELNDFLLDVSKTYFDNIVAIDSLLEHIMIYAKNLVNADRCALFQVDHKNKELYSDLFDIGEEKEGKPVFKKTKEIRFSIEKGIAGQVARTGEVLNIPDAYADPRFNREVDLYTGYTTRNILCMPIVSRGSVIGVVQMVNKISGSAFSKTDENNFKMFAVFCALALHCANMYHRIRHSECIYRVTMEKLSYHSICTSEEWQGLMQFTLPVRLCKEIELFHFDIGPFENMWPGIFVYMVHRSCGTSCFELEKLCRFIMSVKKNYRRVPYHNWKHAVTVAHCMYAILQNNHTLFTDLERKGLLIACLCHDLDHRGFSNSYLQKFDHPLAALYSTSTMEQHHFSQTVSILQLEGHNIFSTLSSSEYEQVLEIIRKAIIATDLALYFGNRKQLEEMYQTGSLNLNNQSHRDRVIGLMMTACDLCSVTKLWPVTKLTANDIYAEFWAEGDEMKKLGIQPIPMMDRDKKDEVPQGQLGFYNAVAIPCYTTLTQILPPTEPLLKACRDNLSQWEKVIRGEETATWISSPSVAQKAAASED
UniProt O00408, whole entry: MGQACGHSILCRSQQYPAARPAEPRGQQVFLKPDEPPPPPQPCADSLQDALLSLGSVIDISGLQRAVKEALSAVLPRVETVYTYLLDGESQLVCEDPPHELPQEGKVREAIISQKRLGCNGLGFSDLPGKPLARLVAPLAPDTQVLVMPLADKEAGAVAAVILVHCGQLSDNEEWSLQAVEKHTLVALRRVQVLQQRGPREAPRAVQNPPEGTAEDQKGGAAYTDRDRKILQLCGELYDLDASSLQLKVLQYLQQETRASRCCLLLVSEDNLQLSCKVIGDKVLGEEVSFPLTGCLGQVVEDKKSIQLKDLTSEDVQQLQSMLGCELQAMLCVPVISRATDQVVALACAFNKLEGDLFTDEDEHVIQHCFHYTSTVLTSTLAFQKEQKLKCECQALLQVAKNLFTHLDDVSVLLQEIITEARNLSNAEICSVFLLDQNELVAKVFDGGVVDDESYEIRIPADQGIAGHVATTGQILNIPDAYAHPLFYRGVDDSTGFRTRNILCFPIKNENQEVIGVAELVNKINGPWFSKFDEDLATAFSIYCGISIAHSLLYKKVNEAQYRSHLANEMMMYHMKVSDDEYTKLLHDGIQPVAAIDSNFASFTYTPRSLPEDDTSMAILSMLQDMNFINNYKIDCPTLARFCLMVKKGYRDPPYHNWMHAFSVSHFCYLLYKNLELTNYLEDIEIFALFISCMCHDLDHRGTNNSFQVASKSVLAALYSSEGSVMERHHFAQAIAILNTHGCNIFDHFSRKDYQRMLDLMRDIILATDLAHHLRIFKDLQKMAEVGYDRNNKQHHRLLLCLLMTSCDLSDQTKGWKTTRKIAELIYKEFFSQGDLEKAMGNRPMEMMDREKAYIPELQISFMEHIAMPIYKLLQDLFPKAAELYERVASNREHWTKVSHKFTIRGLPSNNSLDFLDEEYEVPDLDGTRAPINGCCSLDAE

The target of one experiment is PDE10 (Homo sapiens (Human), UniProt Q9Y233). Description: Phosphodiesterase (PDE) 10 assay with fluorescent substrate (IMAP, fluorescence polarization). The format is biochemical. Particulars: read-out: PDE10 IC50, labeled cAMP 30 nM. For orientation: Polarisation of emitted light reports the rotation of a fluorescent probe.
For another experiment, the target named is PDE 2A (Homo sapiens (Human), UniProt O00408). Description: Phosphodiesterase (PDE) 2A assay with fluorescent substrate (IMAP, fluorescence polarization). The format is biochemical. Particulars: read-out: PDE2 IC50, labeled cAMP 30 nM.

In general, IC50 refers to the concentration that inhibits the measured activity by half. As to `COc1cccc(C2(NC(=O)c3cnn4cc(C5CC5)cnc34)CCOCC2)c1F`, the values for the IC50 at PDE10 and on PDE 2A were 9.82 µM and 0.08 µM, respectively.

Values taken from patent publication US10023575B2, “Cyclic ether derivatives of pyrazolo[1,5-a]pyrimidine-3-carboxyamide” (Boehringer Ingelheim International GmbH, priority 2015, dated 2018).
